A selection: hits, their analogues and other compounds. The true share with any hit is near 13%.
miR-21 reporter: raises the signal of a miR-21 reporter; HeLa miR-21 FLuc reporter, luciferase, 48 h; Potency, µM (top dose mostly 38.3 µM), for inactives: at the highest dose reporter change, positive = more light; AID 2288; 340,000 tested, under 10 active; active = well fitted rising curve with a large enough effect; inconclusive = small, poorly fitted or top-dose-only effect; inactive = no such curve, though single readings can be large or run the other way;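 note: % of control where 0% means no effect; miR-21 action dims this reporter so a rising signal means less miR-21 action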
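HeLa miR-21-FLuc reporter line, endogenous miR-21; 2000 cells/well in DMEM/10% FBS; compound titration up to ~40uM final, 48 h, 37 degree Celsius; luciferase detection reagent, 15 min lysis, CCD luminescence.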
ALDH1A1 block: inhibitors of human aldehyde dehydrogenase 1A1; Potency, µM (top dose mostly 75.3 µM), without a hit: top-dose activity, negative = inhibition, hits mostly inhibitors; 220,000 compounds, 7.3% hits; P00352; Purified ALDH1A1, NADH fluorescence, propionaldehyde substrate; AID 1030; active = well fitted inhibition curve with a large enough effect, not every such curve was filed as active; inconclusive = small, poorly fitted or top-dose-only effect, or another doubt; inactive = no such curve, though single readings can be large or run the other way;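 note: potency is the fitted concentration of half-maximal effect; plate controls were no enzyme wells and a reference inhibitor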
G9a block: G9a (human) methyltransferase inhibition | 350,000 compounds, 8.8% hits | AID 504332 | Potency, µM (doses to about 102 µM), inactives show at the highest dose activity, negative = inhibition, most hits filed as inhibitors | G9a H3K9 monomethylation, AlphaScreen, 2 h; note: potency is the fitted concentration of half-maximal effect; % is set by controls: 0 for no effect and ±100 for the full control effect; nearly all actives have a fitted effect of over 75% in size
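G9a (20 nM) was preincubated 15 min with compound, then reacted 2 h at room temperature with 500 nM biotin-H3K9 peptide and 20 µM SAM. Monomethyl-H3K9 detected by AlphaScreen using anti-H3K9me1 antibody.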
JMJD2E inh: JMJD2E (human) inhibition | 230,000 compounds, 1.6% hits | AID 2147 | JMJD2E catalytic domain, FDH-coupled NADH fluorescence (FDH is formaldehyde dehydrogenase) | Potency, µM (doses to about 57.1 µM), for the others: top-dose activity change, negative = inhibition, hits mostly inhibitors; active = well fitted inhibition curve with a large enough effect, not every such curve was filed as active; inconclusive = small, poorly fitted or top-dose-only effect, or another doubt; inactive = no such curve, though single readings can be large or run the other way;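 note: potency is the fitted concentration of half-maximal effect; 0% = wells with enzyme and -100% = buffer wells without enzyme; nearly all actives have a fitted effect of over 50% in size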
LMNA splice mod: LMNA splicing modulation | HeLa LMNA splicing GFP/RFP minigene ratio, 48 h | Potency, µM (series often up to 46.1 µM), for the others: at the top dose ratio change, negative = inhibition, most hits filed as inhibitors | 200,000 compounds, 0.01% hits | AID 1487; active = well fitted inhibition curve with a large enough effect in the signal ratio, with a control signal flat, not every such curve was filed as active; inconclusive = small, poorly fitted or top-dose-only effect, or effect the other way, or a change in a side signal; the % refers to the signal ratio; note: potency is the fitted concentration of half-maximal effect; % is set by controls: 0 for no effect and ±100 for the full control effect
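Read-out is the ratio of GFP to DsRed2 object intensity, acquired by 488 nm laser-scanning cytometry on HeLa lamin A-EGFP minigene reporter cells. Compound incubation 48 hrs at 37 °C in Opti-MEM with 2% FBS; DMSO 0.5% final.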
Sfp PPTase inh: qHTS Assay for Inhibitors of Bacillus subtilis Sfp phosphopantetheinyl transferase (PPTase); 4'-phosphopantetheinyl transferase ffp (Bacillus subtilis), Q9F4F7; Biochemical Sfp PPTase activity, qHTS; Potency, µM, inactives show max response, negative = inhibition, hits mostly inhibitors; 310,000 compounds, 3.5% hits; AID 1490, 2009; active means well fitted inhibition curve with a large enough effect; inconclusive means small, poorly fitted or top-dose-only effect, or another doubt; inactive means no such curve, though single readings can be large or run the other way;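 further: the enzyme is Sfp with the accession as filed and its product quenches rhodamine fluorescence; potency means the concentration at half of the fitted maximal effect; 0% = enzyme reaction without inhibitor and -100% = no enzyme wells; top concentration of the series not given in the record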
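Step 1, compound plus 15 nM Sfp-PPTase, 15 min, room temperature. Step 2, add rhodamine-CoA (5 uM) and BHQ-2-YbbR (12.5 uM). Step 3, read 525/598 nm fluorescence at 0 and 30 min.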
The depositor's hits bear a star; ? = inconclusive; / = no result; [ ] = dose if it differs, or a comment. Unless noted, calls come from the whole dose curve; as a rule, active = well fitted curve in the direction sought with a large enough effect; inconclusive = small, poorly fitted or top-dose-only effect, or another doubt; inactive = no such curve, though single readings can be large; an effect the other way counts as inactive or inconclusive.

Field names: A = miR-21 reporter; B = ALDH1A1 block; C = G9a block; D = JMJD2E inh; E = LMNA splice mod; F = Sfp PPTase inh
1. CSC1=NCCN1C(=O)c1c(F)cccc1Cl
  A: -4.9% | B: -4.8% | C: 50.1µM* | D: 1.2% | E: 5.7% | F: 8.5%

2. O=C(NCC12CC3CC(CC(C3)C1)C2)c1cc2nc(-c3ccc(F)cc3)cc(C(F)(F)F)n2n1
  A: -0.2% | B: / | C: -2.9%[59 µM] | D: / | E: -1.7%[46 µM] | F: /

3. COc1cccc(-c2noc(Cn3nc(C)c([N+](=O)[O-])c3C)n2)c1
  A: -6.4% | B: -8.3% | C: 39.8µM* | D: -8.8% | E: -0.9% | F: 35.5µM*

4. O=C(c1ccccc1)N1CCCOC1c1ccccc1 (stereo not drawn)
  A: 2.6% | B: -2.8% | C: 25.1µM* | D: 4.4% | E: -2.6% | F: 12.3%

5. O=C(Nc1nc2ccccc2[nH]1)c1cccc(Cl)c1
  A: -41.4% | B: / | C: / | D: / | E: / | F: 3.7%

6. O=C(O)c1ccc(Nc2nc3ccc(Cl)cc3[nH]2)cc1
  A: -2.3% | B: / | C: 44.7µM* | D: / | E: / | F: -24.9%

7. NC1=NC(=O)/C(=C/c2ccc(Cl)cc2Cl)S1
  A: -2.8% | B: / | C: 0.1% | D: / | E: / | F: ?

8. O=C1OC(/C=C/c2ccc(Cl)cc2Cl)=NC/1=C\c1cccs1
  A: -11.0% | B: 3.16µM* | C: -19.7%[59 µM] | D: 8.7% | E: -0.9% | F: 6.2%

9. CSc1nc(C)nc(N/C=C(\C#N)S(=O)(=O)c2ccccc2Cl)n1
  A: 3.0% | B: / | C: / | D: 2.3% | E: / | F: 3.5%

10. CCC(CC)C(=O)c1c[nH]c(C(=O)O)c1
  A: -0.6% | B: 8.0% | C: -2.0% | D: 4.9% | E: / | F: 6.8%

11. CCC(CC)C(=O)c1c[nH]c(C(=O)NN)c1
  A: 19.1% | B: 7.94µM* | C: 6.4% | D: 34.2% | E: 14.2%[46 µM] | F: -1.3%

12. O=C(Cn1nnc(-c2cccc(C(F)(F)F)c2)n1)NCc1ccc(F)cc1
  A: -6.2% | B: / | C: -21.4%[59 µM] | D: / | E: / | F: /

13. CCOC(=O)CNC(=O)c1cc(C)oc1C
  A: -3.5% | B: 0.0631µM* | C: ? | D: -8.8% | E: 2.3% | F: 4.5%

14. Cc1oc(C(C)(C)C)cc1C(=O)NCc1ccc2c(c1)OCO2
  A: -3.4% | B: -5.1% | C: 3.8% | D: 4.4% | E: 2.7%[46 µM] | F: 15.1%

15. CCOC(=O)c1cc(C(C)(C)C)oc1CN
  A: -5.0% | B: 3.1% | C: -16.8%[59 µM] | D: -5.4% | E: -1.3% | F: 5.1%

16. CCOC(=O)c1ccc(CNC(=O)c2cc(C(C)(C)C)oc2C)o1
  A: -9.8% | B: 25.1µM* | C: ? | D: 4.4% | E: ? | F: 1.7%

17. CCOC(=O)c1cc(C(C)(C)C)oc1CNC(=O)c1c(C)oc2c1CCCC2
  A: -5.5% | B: 17.8µM* | C: ? | D: -10.3% | E: -11.4% | F: -0.7%

18. Cc1ccc(CNC(=O)CN2C(=O)COc3ccc(S(=O)(=O)N4CCCCC4)cc32)o1
  A: -4.7% | B: / | C: -4.7%[59 µM] | D: / | E: / | F: -5.4%

19. CC(CCc1ccccc1)NC(=O)Cn1c(=O)nc(-c2ccccc2)c2ccccc21 (stereo not drawn)
  A: 23.3% | B: / | C: 4.4%[59 µM] | D: / | E: ? | F: /

20. Cc1ccc(S(=O)(=O)N2[C@@H](c3ccccc3F)C(C(=O)O)=CC[C@H]2c2cccs2)cc1
  A: / | B: / | C: 28.0%[2.33 µM] | D: / | E: / | F: /

21. CCCn1nc(C(=O)N(C)CC(=O)Nc2ccc(OCC)c(OCC)c2)c2ccccc2c1=O
  A: / | B: / | C: -2.1%[12.7 µM] | D: / | E: / | F: /

22. O=S1(=O)C=C(Oc2ccc3ccccc3c2)c2ccccc21
  A: 5.7% | B: 10µM* | C: 30.7%[0.501 µM] | D: -7.1% | E: ? | F: -10.1%

23. O=S1(=O)C=C(Oc2ccc(F)cc2)c2ccccc21
  A: -17.4% | B: ? | C: ? | D: -4.6% | E: -18.7% | F: 12.3%

24. CCOCCCNC(c1ccccc1)c1ccncc1 (stereo not drawn)
  A: -5.6% | B: / | C: -12.5%[59 µM] | D: / | E: / | F: 6.0%

25. CCOCCCNCC(O)c1ccccc1 (stereo not drawn)
  A: -11.2% | B: ? | C: 1.78µM* | D: 3.2% | E: -10.0% | F: ?

26. CC(C)Oc1ccc(CNS(=O)(=O)c2ccc3c(c2)C(C)(C)C(=O)N3C)cc1
  A: 4.8% | B: / | C: 2.8%[59 µM] | D: / | E: / | F: /

27. COc1ccc2c(c1)OCC1=C2CCC2(C)C(=O)CC=C12 (stereo not drawn)
  A: -2.0% | B: ? | C: ? | D: ? | E: -16.8% | F: 20µM*

28. NC(=O)c1ccc(-c2nc(-c3ccc4c(c3)OCO4)c(-c3ccccn3)[nH]2)cc1
  A: / | B: ? | C: 2.1%[59 µM] | D: ? | E: / | F: 6.4%

29. CC1C(=O)N2CCCc3cc(S(=O)(=O)Nc4ccccc4C(N)=O)cc1c32 (stereo not drawn)
  A: / | B: / | C: 44.7µM* | D: / | E: / | F: /

30. CC1C(=O)N2CCCc3cc(S(=O)(=O)Nc4ccccc4F)cc1c32 (stereo not drawn)
  A: / | B: / | C: -27.3% | D: / | E: / | F: /

31. CC1C(=O)N2CCCc3cc(S(=O)(=O)N4CCC(C(N)=O)CC4)cc1c32 (stereo not drawn)
  A: -0.6% | B: / | C: 12.6µM* | D: / | E: 1.3%[46 µM] | F: ?

32. CCOc1ccc(N(CC(=O)Nc2ccc3c(c2)OCO3)S(=O)(=O)c2ccccc2)cc1
  A: 0.1% | B: / | C: -8.7%[59 µM] | D: / | E: / | F: /

33. COc1ccc(CN2CCN(S(=O)(=O)c3ccccc3)CC2)c(OC)c1
  A: -1.9% | B: ? | C: 3.16µM* | D: ? | E: -2.2% | F: -8.1%

34. COc1ccc(OC)c(CN2CCN(S(=O)(=O)c3ccccc3)CC2)c1
  A: 12.7% | B: / | C: -28.2%[59 µM] | D: / | E: -16.8%[46 µM] | F: /

35. COc1ccc(S(=O)(=O)N2CCN(Cc3cc(OC)c(OC)cc3OC)CC2)cc1
  A: -5.8% | B: / | C: 50.1µM* | D: / | E: / | F: ?

36. Cc1ccc(NC(=O)Cn2c(=O)n(CC3CCC(C(=O)NC(C)C)CC3)c(=O)c3sccc32)cc1 (stereo not drawn)
  A: -1.3% | B: / | C: 3.7%[59 µM] | D: / | E: 7.4%[46 µM] | F: /

37. CCN(CC)C(=O)C1CCCN(c2ncnc3c2c(-c2ccccc2)cn3-c2cccc(C)c2)C1 (stereo not drawn)
  A: 9.9% | B: / | C: ? | D: / | E: ? | F: /

38. COc1c(/C=N/NC(=O)c2ccccc2O)c(CCN(C)C(C)=O)cc2c1OCO2
  A: -5.2% | B: -0.7% | C: 42.0%[59 µM] | D: 2.2% | E: -2.5% | F: -4.3%

39. COc1c(/C=N/Nc2ccc(C(=O)O)cc2)c(CCN(C)C(C)=O)cc2c1OCO2
  A: -12.3% | B: / | C: 44.7µM* | D: -25.7% | E: / | F: 5.1%

40. COc1cccc(/C=N/NC(=O)c2ccncc2)c1OC(=O)c1ccc(Br)cc1
  A: 25.9% | B: / | C: 13.7%[0.0925 µM] | D: / | E: / | F: 12.5%

41. CC(C)NS(=O)(=O)c1ccc2nc(NC(=O)c3cncc(Br)c3)sc2c1
  A: -0.4% | B: / | C: ? | D: / | E: -6.2%[46 µM] | F: /

42. COC(=O)C1=C(O)/C(=C\c2ccc(CNS(=O)(=O)c3ccc(Cl)cc3)o2)N=C1C
  A: -2.9% | B: -8.1% | C: 12.6µM* | D: -5.6% | E: -9.2% | F: 35.5µM*

43. CCOC(=O)C1=C(O)/C(=C\c2ccc(CNS(=O)(=O)c3ccc(Br)cc3)o2)N=C1C
  A: -2.1% | B: 0.0% | C: ? | D: ? | E: 0.2% | F: ?

44. COC(=O)C1=C(O)/C(=C\c2ccc(CNS(=O)(=O)c3ccccc3)o2)N=C1C
  A: -4.0% | B: 31.6µM* | C: ? | D: 0.1% | E: ? | F: 50.1µM*

45. CCOc1ccccc1N1CC(C(=O)Nc2cc(S(C)(=O)=O)ccc2Cl)CC1=O (stereo not drawn)
  A: / | B: / | C: -26.9% | D: / | E: / | F: /

46. Cc1c(C(=O)O)oc2c1-c1nn(Cc3ccccc3Cl)cc1CC2
  A: -9.5% | B: / | C: ? | D: / | E: / | F: /

47. O=C(O)c1cccc(S(=O)(=O)Nc2cccc3ccccc23)c1
  A: -6.0% | B: / | C: 39.8µM* | D: / | E: / | F: 2.8%

48. O=S(=O)(Nc1cccc2ccccc12)c1ccccc1
  A: -4.2% | B: / | C: / | D: 5.1% | E: / | F: 10.3%

49. Cn1nccc1C(=O)NCc1ccc2c(c1)CCN2C(=O)c1ccc(F)cc1
  A: 28.7% | B: / | C: 3.7%[59 µM] | D: / | E: -5.8%[46 µM] | F: /

2 of these compounds, reformatted:
| entry | structure | miR-21 reporter | ALDH1A1 block | G9a block | JMJD2E inh | LMNA splice mod | Sfp PPTase inh |
| --- | --- | --- | --- | --- | --- | --- | --- |
| 28 | NC(=O)c1ccc(-c2nc(-c3ccc4c(c3)OCO4)c(-c3ccccn3)[nH]2)cc1 | / | ? | 2.1%[59 µM] | ? | / | 6.4% |
| 29 | CC1C(=O)N2CCCc3cc(S(=O)(=O)Nc4ccccc4C(N)=O)cc1c32 (stereo not drawn) | / | / | 44.7µM* | / | / | / |
